Ab-14 light chain CDR variants: yeast mating affinities

The measurements come from Engelhart et al. 2022 (doi:10.1038/s41597-022-01779-4) through the FLAb antibody collection.

The target is the same throughout: PDVDLGDISGINAS, from the HR2 region of SARS-CoV-2 spike.

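The parent was found by panning a naive human phage display library on the peptide. Variants in AAYL50 differ from the parent at up to three CDR positions; double and triple changes were sampled at random. Affinity was read by AlphaSeq, a pooled yeast mating assay with surface-displayed partners. Binding brings cells together so that they mate, and sequencing counts the barcode pairs among the diploids. The ratio of observed to expected reads was calibrated, replicate by replicate, on BCL2-family standards whose Kd was known from biolayer interferometry. Each pool was mated in three replicate cultures.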

The variants keep the heavy chain, the linker and the frameworks of Ab-14 (scFv order VH, a 15-residue (Gly4Ser)3 linker, VL).
VH: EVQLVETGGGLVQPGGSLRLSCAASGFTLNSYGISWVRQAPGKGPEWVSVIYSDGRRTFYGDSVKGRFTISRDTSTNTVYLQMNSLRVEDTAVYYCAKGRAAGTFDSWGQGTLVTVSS
VL: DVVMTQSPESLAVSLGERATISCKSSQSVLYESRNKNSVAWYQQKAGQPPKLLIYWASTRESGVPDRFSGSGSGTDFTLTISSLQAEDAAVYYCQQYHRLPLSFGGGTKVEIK

Substitutions are numbered in sequence along the VL above, starting at 1 (not Kabat). Each Kd is an estimate from the mating assay, the geometric mean of the replicates in which the pair was seen; lower is stronger. "not detected" marks a missing value. The strain was present, yet no cells mated with the target were sequenced in any replicate, which points to weak or no binding.

| changes | apparent Kd | seen in |
|---|---|---|
| S25F+N37Y+S62K | 29 nM | 3/3 |
| N35E+S62N+R99M | 940 nM | 3/3 |
| S25Y+K36Y+S62E | 4.9 nM | 3/3 |
| S25I+V29T+S38F | 1.7 nM | 3/3 |
| L30Y+T59I | 6.6 nM | 3/3 |
| Q27Y+L30W+L102F | 3.1 nM | 3/3 |
| S28M+S38Y+S103C | not detected | 0/3 |
| S25V+Q27G+N37G | 5.5 nM | 3/3 |
| S28V+Q96Y+Y97I | 800 nM | 1/3 |
| A57I+Q95D+Q96W | 39 µM | 2/3 |
| K36F+V39Y+Q95R | not detected | 0/3 |
| V29W+R34C+S62F | 620 nM | 3/3 |
| Q95M+R99H+S103P | not detected | 0/3 |
| E32T+K36H+H98R | 11 µM | 2/3 |
| T59H+Y97W+P101F | not detected | 0/3 |
| L30Y+E32Q+Y97C | not detected | 0/3 |
| S38T+H98D+L102H | not detected | 0/3 |
| Y31G+R34V+W56Q | 640 pM | 3/3 |
| L30Q+N35P+L102K | 2.1 µM | 2/3 |
| L30M+N37T+P101D | 100 nM | 3/3 |
| S26Q+L100Y+L102Q | not detected | 0/3 |
| Y97L+R99G | not detected | 0/3 |
| K24G+Y31M+Q95P | 28 µM | 2/3 |
| A57I+Y97V+L100G | 5.8 µM | 2/3 |
| N35K+E61M | 29 nM | 3/3 |
| V29Q+S38V | 1.8 µM | 1/3 |
| S33R+E61C+P101M | 15 µM | 1/3 |
| S28Q+Q95H+H98P | 360 nM | 1/3 |
| A40P+Q96M+H98W | 310 µM | 1/3 |
| E32F+V39F+Q96C | 4.0 µM | 1/3 |
| S28Y+E32P+R60L | 160 nM | 3/3 |
| S25G+Q27L+Q96Y | 4.3 µM | 2/3 |
| S26K+Y31G+N37F | 100 nM | 3/3 |
| K24I+S26K+S28A | 100 nM | 3/3 |
| S33V+Q96E | not detected | 0/3 |
| S25M+K36V+R99E | 7.2 nM | 3/3 |
| L30T+K36L+Q95T | 24 µM | 3/3 |
| N35V+E61K | not detected | 0/3 |
| Y31C+E32D+L100E | 140 nM | 3/3 |
| L30V+V39Q+P101Q | 240 µM | 1/3 |
| K24W+Y31T+N35W | 400 nM | 3/3 |
| V29H+N35V+T59G | 2.8 µM | 1/3 |
| S26H+L30N+N37D | 18 nM | 3/3 |
| V29W+R34Q+L100I | 22 nM | 3/3 |
| S26V+L30N+Y97A | 680 nM | 3/3 |
| S28Q+R60T+Q96Y | 23 µM | 1/3 |
| E32V+S38G+W56N | 22 nM | 3/3 |
| N35Q+T59M+L102P | 340 nM | 3/3 |
| W56T+A57T+Q96C | 1.2 µM | 1/3 |
| S25N+N35T+N37V | not detected | 0/3 |

Picked from the list: the 7 lowest averages where every replicate gave a value.

| changes | apparent Kd | seen in |
|---|---|---|
| Y31G+R34V+W56Q | 640 pM | 3/3 |
| S25I+V29T+S38F | 1.7 nM | 3/3 |
| Q27Y+L30W+L102F | 3.1 nM | 3/3 |
| S25Y+K36Y+S62E | 4.9 nM | 3/3 |
| S25V+Q27G+N37G | 5.5 nM | 3/3 |
| L30Y+T59I | 6.6 nM | 3/3 |
| S25M+K36V+R99E | 7.2 nM | 3/3 |

Nonspecific signal, from three strains lacking the peptide, appeared in 18% of pairings of library AAYL50, centred on 15 µM (5% of these signals below 970 nM); values are not corrected for it. Parent in this assay: reference entry 4.4 nM, copy in this library 48 nM.